Source: ChEMBL document CHEMBL5505970 (J Med Chem, 2024)

Columns and labels:
Homo sapiens [1] = organism: Homo sapiens; test: Selectivity ratio of IC50 for inhibition of mTOR in human HeLa S3 cells to IC50 for inhibition of ATR in human HeLa S3 cells; type: cell-based; settings: time 1.0 hrs
Homo sapiens [2] = organism: Homo sapiens; test: Selectivity ratio of IC50 for inhibition of mTOR in human LoVo cells using pP70S6K (Thr389) as substrate to IC50 for inhibition of ATR in gemcitabine-stimulated human LoVo cells using CHK1 (Ser345) as substrate; type: cell-based

How did the Ratio IC50 (Homo sapiens [1]) turn out when `C[C@@H]1COCCN1c1cc([C@]2(O)C[C@H]3CC[C@@H](C2)O3)c2cnn(-c3cc[nH]n3)c2n1` [CAMONSERTIB] was run?
The Ratio IC50 was 28.

And the Ratio IC50 (Homo sapiens [2])?
Its Ratio IC50 is 30.
